The assay has as its system Staphylococcus aureus isolates. The experiment in a line: Minimum inhibitory concentration, macro broth dilution, Staphylococcus aureus isolates (Test 1). The assay is classed as cell-based. The note with it: 24 h. The procedure:
Compounds were tested against five isolates of Staphylococcus aureus. The bacteria used were isolated from patients at the Walter Reed Army Medical Center, Washington, D.C. […] Each compound was dissolved in Dimethyl Sulfoxide (DMSO) (12.8 mg/ml) and then diluted with Mueller-Hinton broth to obtain the desired dilutions. Tubes containing the hightest quantities of DMSO with no compound present were run as controls.

Data on 1 molecule can be found in US4440771A, “2-Acetyl quinoline thiosemicarbazones useful in treatment of gonorrhea, malaria or bacterial infections” (The United States of America as represented by the …, priority 1982, dated 1984).

Values after ≈ are worked out from the molar mass of the structure shown.

`CC(=NNC(=S)N1CCCC1)c1ccc2ccccc2n1` [Compound 3I, Pyrrolidine-1-thiocarboxylic acid 2-[1-(2-quinolyl)ethylidene]hydrazide] yielded an MIC (Staphylococcus aureus isolate II) of 0.5 µg/mL (≈ 1.68 µM) and an MIC (Staphylococcus aureus isolate III) of 0.5 µg/mL (≈ 1.68 µM).

For orientation: MIC means the lowest concentration found to suppress growth. A lower MIC goes with inhibition by little substance.
